Laboratory results from US9200046B2, “Reporter system for high throughput screening of compounds and uses thereof” (priority 2011, dated 2015).

Amino acid sequences for entries named in this document (tags omitted).
UniProt Q14145, whole entry: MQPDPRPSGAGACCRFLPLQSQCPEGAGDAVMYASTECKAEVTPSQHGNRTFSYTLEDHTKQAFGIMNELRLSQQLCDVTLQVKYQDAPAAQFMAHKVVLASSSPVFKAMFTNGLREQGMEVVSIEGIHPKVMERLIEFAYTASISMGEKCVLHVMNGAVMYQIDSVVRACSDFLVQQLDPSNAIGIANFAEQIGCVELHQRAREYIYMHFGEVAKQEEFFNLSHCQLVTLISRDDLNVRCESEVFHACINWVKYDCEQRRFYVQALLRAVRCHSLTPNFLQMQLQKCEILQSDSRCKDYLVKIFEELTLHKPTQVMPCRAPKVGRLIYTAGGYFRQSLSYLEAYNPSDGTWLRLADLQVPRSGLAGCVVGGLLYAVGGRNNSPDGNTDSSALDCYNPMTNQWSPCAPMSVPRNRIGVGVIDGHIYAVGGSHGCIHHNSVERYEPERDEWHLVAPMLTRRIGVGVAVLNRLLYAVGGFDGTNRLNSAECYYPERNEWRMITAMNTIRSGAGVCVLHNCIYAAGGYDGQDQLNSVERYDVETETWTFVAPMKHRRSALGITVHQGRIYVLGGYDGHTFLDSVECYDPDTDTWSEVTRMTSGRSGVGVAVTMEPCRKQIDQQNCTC

Biological target: Nrf2-Keap1 complex (Homo sapiens, UniProt Q14145)

## COc1cc([C@@H]2c3cc4c(cc3[C@@H](O)[C@H]3COC(=O)[C@H]23)OCO4)cc(OC)c1O [4′-DEMETHYLEPIPODOPHYLLOTOXIN]
  Activation 100 nL: 185%
  Activation 200 nL: 165%
